Experimental data from BindingDB's records for doi:10.1038/npp.1993.4 (Eli Lilly, 1993).

Chains of the proteins cited; added tags and fusions are not shown.
UniProt P23977, whole entry: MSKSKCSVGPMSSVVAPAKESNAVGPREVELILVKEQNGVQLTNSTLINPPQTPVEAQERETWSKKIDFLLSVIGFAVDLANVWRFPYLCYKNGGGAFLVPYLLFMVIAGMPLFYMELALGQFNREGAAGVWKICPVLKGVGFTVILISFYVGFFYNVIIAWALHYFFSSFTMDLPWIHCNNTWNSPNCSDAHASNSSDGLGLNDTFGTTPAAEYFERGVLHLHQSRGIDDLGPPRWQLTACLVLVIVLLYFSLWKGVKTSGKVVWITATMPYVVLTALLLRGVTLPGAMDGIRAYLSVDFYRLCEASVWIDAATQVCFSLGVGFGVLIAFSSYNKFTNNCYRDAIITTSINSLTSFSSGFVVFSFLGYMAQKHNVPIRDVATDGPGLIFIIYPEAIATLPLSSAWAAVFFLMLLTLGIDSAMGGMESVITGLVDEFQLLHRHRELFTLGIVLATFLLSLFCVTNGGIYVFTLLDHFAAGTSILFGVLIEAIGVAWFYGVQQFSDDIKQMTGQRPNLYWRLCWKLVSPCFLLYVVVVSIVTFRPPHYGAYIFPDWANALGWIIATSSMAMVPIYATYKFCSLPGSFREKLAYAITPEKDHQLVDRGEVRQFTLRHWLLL

Tests used:
[1] = target: Sodium-dependent dopamine transporter (Rattus norvegicus, UniProt P23977)
[2] = target: Norepinephrine transporter (Rattus norvegicus, UniProt Q9JIA2)

SMILES | Ki [1] [nM] | Ki [2] [nM]
CNCC[C@@H](Oc1cccc2ccccc12)c1cccs1 [(R)-duloxetine] | 659 | 
CNCC[C@H](Oc1cccc2ccccc12)c1cccs1 [DULOXETINE] | 369 | 15.6
